Measurements taken from publication PMC2779060.

Biological target: goose δ-crystallin E294L mutant (goose) (UniProt P33110)
Assay: AUC; sedimentation velocity, 20 °C, 130,000 x g, An50 Ti rotor; radial scans every 5 min for about 3 h

goose δ-crystallin E294L mutant (from UniProt P33110 2-466) (natural protein)
stoichiometry N: 4
